One assay has as its target T1, human CB2R (Homo sapiens, UniProt P34972).
T1 construct: host or cells: CHO cells
Description: CB2 cAMP (Assay 1): In vitro testing of CB2 potency. It counts as cell-based.

Amino acid sequences for entries named in this document (tags omitted).
UniProt P34972, whole entry: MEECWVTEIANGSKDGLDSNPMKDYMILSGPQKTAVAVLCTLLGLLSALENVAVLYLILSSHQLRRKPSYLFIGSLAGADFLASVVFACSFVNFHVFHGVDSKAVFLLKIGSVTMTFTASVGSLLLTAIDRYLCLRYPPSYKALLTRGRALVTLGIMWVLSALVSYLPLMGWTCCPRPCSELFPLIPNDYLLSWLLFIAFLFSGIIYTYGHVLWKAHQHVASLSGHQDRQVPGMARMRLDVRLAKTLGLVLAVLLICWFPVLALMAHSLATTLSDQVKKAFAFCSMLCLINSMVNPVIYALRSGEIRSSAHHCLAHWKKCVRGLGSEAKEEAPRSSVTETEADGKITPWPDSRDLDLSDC
UniProt P21554, whole entry: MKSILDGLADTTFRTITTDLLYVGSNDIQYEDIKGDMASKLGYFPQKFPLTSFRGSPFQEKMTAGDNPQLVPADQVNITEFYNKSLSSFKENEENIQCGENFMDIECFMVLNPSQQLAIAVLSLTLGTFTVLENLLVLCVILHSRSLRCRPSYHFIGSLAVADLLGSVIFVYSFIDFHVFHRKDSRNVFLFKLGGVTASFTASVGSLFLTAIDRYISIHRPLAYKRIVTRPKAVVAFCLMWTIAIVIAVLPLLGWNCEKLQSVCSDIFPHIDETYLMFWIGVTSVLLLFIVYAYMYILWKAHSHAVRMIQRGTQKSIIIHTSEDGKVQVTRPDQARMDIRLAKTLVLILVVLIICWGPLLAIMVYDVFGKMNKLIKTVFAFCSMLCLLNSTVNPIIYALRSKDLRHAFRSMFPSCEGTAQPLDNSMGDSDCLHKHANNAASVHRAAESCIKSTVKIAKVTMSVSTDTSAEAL

Another assay addresses T2, human CB1R (Homo sapiens, UniProt P21554).
T2 construct: host or cells: CHO cells
The assay can be described thus: CB1 cAMP (Assay 2): In vitro testing of CB1 potency. It counts as cell-based.

SMILES strings stand for the structures. pEC50: −log10 of the molar value.

The pEC50 is the negative decadic logarithm of the EC50, by convention in mol/L. Low readings indicate a high EC50, high ones a low EC50.

Regarding `CC(C)(C#N)c1cc(NC(=O)[C@@H]2CCCN2C2CCOCC2)on1` [Example 6, (S)-1-(Tetrahydro-pyran-4-yl)-pyrrolidine-2-carboxylic acid[3-(cyano-dimethyl-methyl)-isoxazol-5-yl]-amide], the results for the pEC50 at human CB2R and at human CB1R were 7.96 and 4.06, respectively.

The values above are taken from patent US8865744B1, “(Cyano-dimethyl-methyl)-isoxazoles and -[1,3,4]thiadiazoles” (Boehringer Ingelheim International GmbH, priority 2013, dated 2014).
